## AlphaSeq binding of Ab-14 heavy chain variants to a spike HR2 peptide

Data: MIT Lincoln Laboratory AlphaSeq set, Li et al. 2023, doi:10.1038/s41467-023-39022-2, as distributed in FLAb.

Antigen: PDVDLGDISGINAS, a 14-residue peptide of the SARS-CoV-2 spike HR2 region.

Each scFv is VH, three GGGGS repeats, VL, as in the parent Ab-14, and differs from it in the CDRs of the heavy chain only.
VH: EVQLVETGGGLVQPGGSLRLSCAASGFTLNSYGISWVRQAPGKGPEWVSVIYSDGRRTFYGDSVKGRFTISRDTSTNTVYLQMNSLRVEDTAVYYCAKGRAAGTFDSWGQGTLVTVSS
VL: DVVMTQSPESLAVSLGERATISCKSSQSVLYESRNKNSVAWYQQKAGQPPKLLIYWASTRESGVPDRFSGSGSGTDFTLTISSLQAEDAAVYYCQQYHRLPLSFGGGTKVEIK

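The starting antibody came from a phage panning campaign against this peptide. These sequences belong to a second round, designed from the earlier measurements on random variants of the parent. Several design methods are mixed in this list. In AlphaSeq, yeast of one mating type display the scFv and yeast of the other type display the target. After mating in shaken culture at 30 °C for 16 h, diploids were selected and their barcode pairs sequenced. The ratio of observed to expected reads was calibrated, replicate by replicate, on BCL2-family standards whose Kd was known from biolayer interferometry. There are six technical replicates.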

Variants are written as CDR1, CDR2 and CDR3 of the heavy chain (limits as in the source). Parent: GFTLNSYGIS, VIYSDGRRTFYGDSVK, GRAAGTFDS. This list holds designs with at most six substitutions. Values are apparent Kd, the geometric mean of the replicates that gave a signal; lower means stronger binding. A pair that was not seen in any replicate is written "not detected"; this usually means weak binding, but a binder can also be missed. Values of this round are not directly comparable with the first-round values of the same sequences. The authors averaged sequences with at least three values out of six and counted those with two or fewer as poor binders. As a blank, each scFv also met three strains without target: over all heavy chain designs, 1% of these pairings were detected, typically at 120 nM and seldom below 7.0 nM. Of ten entries with the parent sequence, four were seen in most replicates (averages 2.2 nM to 240 nM), three in one and three in none, so single entries are noisy.

CDR-H1,CDR-H2,CDR-H3,apparent Kd,detected
GFYLNSYGIS,VIYSDGRRTFYDDSVK,GQVAGTFDS,140 nM,6 of 6
GFGLNSYGIS,VIYSDGRRTFYSDSVK,GQTAGTFDS,970 pM,6 of 6
GFQLNEYGIS,VIYSDGRRTFYGDSVK,GRTAGTFDL,470 pM,6 of 6
GFTLESYGIS,VIYSDGIRTFYGDSVK,GRAAGTFDS,23 nM,5 of 6
GFTLNEYGIS,VIYSDGRRTFYGDSVK,GRAAGTFVQ,not detected,0 of 6
GFKLDSYGIG,VIYSDGRRTFYGDSVK,GRAAGTALS,not detected,0 of 6
GFTLNEYGIS,VIYSDGRRTFYKDDVK,GRTAGTFDS,1.2 nM,6 of 6
GFTLNQYGIS,VIYSDGRRTEYSDSVK,GRAAGFFDS,38 nM,6 of 6
GFDLNHYGIS,VIYNDGRRTFYGDKVK,GRAAGWFNS,not detected,0 of 6
GFTLNSYGIS,VIYSDGMRTFYSDSVK,GRAGGTFDS,25 nM,5 of 6
GFELNEYGIS,VIYSDGRRTFYIDSVK,GQAAGTFDK,1.1 nM,6 of 6
GFSLNSYGIS,VIYSDGRRTFYGDQVK,GRIAGTFDS,21 nM,6 of 6
RFTLNSYGIS,VIYSDGRRTFYGDSVK,HRAAGTFDP,not detected,0 of 6
GFELNSYGIS,VIYSDGRRTFYGDRVK,GQTAGTFDS,6.9 nM,6 of 6
GFQLNDYGIS,VIYSDGRRTFYIDRVK,GKAAGTFDS,not detected,0 of 6
KFTLNSYGIS,VIYSDGRRTFYDDSVK,GKTAGTFDS,33 nM,5 of 6
GFSLNSYGIS,VIYSDGRRTFYADSVK,GSQAGTFDS,1.7 nM,6 of 6
GFTLRSYGIS,VIYSDGRRTFYGDSVK,GPAAGAFDS,not detected,0 of 6
LFTLNSYGIS,VIYSDGIRTFYGDSTK,GRAAGTFDS,not detected,0 of 6
GFTLNSYGIS,VIYSDGRRTAYGDSVK,GRNAGTFPS,13 nM,5 of 6
GFDLNSYGIS,VIYSDGRRTFYLDSVK,GHAAGTFDS,3.0 nM,6 of 6
GFDLNWYGIS,VIYSDGRRTFYIDSVK,GNAAGTFDS,13 nM,5 of 6
GFSLNWYGIS,VIYSDGRRTFYHDSVK,GRTAGTFDS,49 nM,5 of 6
GFTLDMYGIS,VIYSDGRRTFYGDSVK,GRTAGTFDS,3.8 nM,4 of 6
GFTLNSYGIS,VMYSDGRRTEYGDSVK,GRVAGTFDK,2.3 nM,6 of 6
GFDLNSYGIS,VIYSDGQRTFYIDSVK,GQAAGTFDS,550 pM,6 of 6
GFYLNSYGIS,VIYSDGRRTFYDDSVK,GKLAGTFDS,61 nM,5 of 6
GFTLNSYGIS,VIYSDGKRTFYADDVK,GRTAGTFDT,2.2 nM,6 of 6
GFSLNEYGIS,VIYSDGRRTFYTDSVK,GRFAGTFDS,950 pM,6 of 6
GFSLNSYGIS,VIYSDGRRTFYKDNVK,GRTAGTFDS,2.9 nM,6 of 6
GFTLNSYGIS,VIYSDGRRTFYGDSVK,GQAHGTFDS,not detected,0 of 6
GITLNQYGIS,VIYSDGRRTGYDDSVK,GRAAGTFDS,40 nM,4 of 6
GFTLNVYGIS,VIYSDGRRTFTTDSVK,GRFAGTFDS,41 nM,1 of 6
GETLNDYGIS,VIYSDGRRTFYGDSVK,GWIAGTFDT,12 nM,3 of 6
GFELNEYGIS,VIYSDGRRTFYGDSVK,GHAAGTFDT,2.3 nM,6 of 6
GFTLNSYGIS,VIYSDGRRTFYGDSVK,GQLAGTFDT,27 nM,6 of 6
GFTLNSYGIS,VIYSDGRRTQYGDSVK,GRATGTFDS,not detected,0 of 6
GFTLNEYGIS,VIYSDGRRTFYSDSVK,GQAAGTFDT,870 pM,6 of 6
GFTPNSYGIS,VIYSDGRRTFYKDSVK,GRAAGTFDS,not detected,0 of 6
GFWLRQYGIS,VIYADGRRTIYGDSVK,GSAAGTFDS,8.0 nM,6 of 6
GFNLNSYGIS,VIYSDGRRTFYGDSVK,GDNAGTFDS,39 nM,6 of 6
SFSLNSYGIS,VIYSDGRRTFYADSVK,GRAAGTFDS,35 nM,6 of 6
GFALNSYGIS,VIYSDGRRTFYQDSVK,GQAAGTFDS,25 nM,6 of 6
GFTLNEYGIS,VIYADGRRTFYGDSVK,GRAAGTFDK,450 pM,6 of 6
GFELNSYGIS,VIYSDGRRTFYEDSVK,GQLAGTFDS,4.7 nM,6 of 6
GFNLNSYGIS,VIYSDGRRTFYVDDVK,GSEAGTFDS,800 pM,6 of 6
GFTLNSYGIK,VIYSDGRRTFYGDSVK,GRAAGDFDS,not detected,0 of 6
PFDLNSYGIS,VIYSDGRRTFYKDSVK,GQTAGTFDS,20 nM,2 of 6
GFTLNEYGIS,VIYSDGRRTFYGDSVK,GKIAGTFDQ,2.4 nM,6 of 6
GFTLNSYGIS,VIYSDGRRTFYTDSVR,GRDIGTFDS,not detected,0 of 6
GFGLNSYGIS,VIYSDGRRTFYQDSVK,GRASDGFDS,not detected,0 of 6
GFTLNQYGIS,VIYSDGLRTFYGDSVK,GRAAGTFDS,not detected,0 of 6
GFTLNEYGIS,VIYSDGRRTFYGDSVK,YRAAVWFDQ,1.4 nM,6 of 6
GFSLNSYGIS,VIYSDGRRTFYADSVK,GRVAGTFDT,2.4 nM,6 of 6
GFTLNSYGIS,VIYSDGQRTFYGDSVK,GRTAGTFDS,17 nM,5 of 6
GFTVNSYGIS,VIYSDGRRTWYGDSVK,GRMADTFDS,not detected,0 of 6
GFSLNSYGIS,VIYSDGRRTFYIDSVK,GKAAGTFDT,6.8 nM,6 of 6
GFTINSYGIS,VIYSDGRRTFYGDSVK,GYAAGTWDS,not detected,0 of 6

The closing 6 entries, repeated:

CDR-H1,CDR-H2,CDR-H3,apparent Kd,detected
GFTLNEYGIS,VIYSDGRRTFYGDSVK,YRAAVWFDQ,1.4 nM,6 of 6
GFSLNSYGIS,VIYSDGRRTFYADSVK,GRVAGTFDT,2.4 nM,6 of 6
GFTLNSYGIS,VIYSDGQRTFYGDSVK,GRTAGTFDS,17 nM,5 of 6
GFTVNSYGIS,VIYSDGRRTWYGDSVK,GRMADTFDS,not detected,0 of 6
GFSLNSYGIS,VIYSDGRRTFYIDSVK,GKAAGTFDT,6.8 nM,6 of 6
GFTINSYGIS,VIYSDGRRTFYGDSVK,GYAAGTWDS,not detected,0 of 6